High-throughput results from PubChem.
A selection: hits, their analogues and other compounds. The true share with any hit is near 1%.
CDK5 p35 inh: inhibitors of human CDK5/p35 kinase, primary screen, biochemical, single concentration | actives 0.01% (n = 330,000) | Recombinant CDK5/p35, ADP-Glo luminescence, 60 min | inhibition, % at 10 µM | Cyclin-dependent kinase 5 (Homo sapiens) + Cyclin-dependent kinase 5 activator 1 (Homo … | AID 488839, 2010;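 active = highest replicate inhibition of at least 50% and at least 75% of replicates reaching 50%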
C2C12 statin: suppressors of statin myotoxicity in C2C12 myotubes, primary screen, cell-based, single point, plate reader; rescue of ATP level, % at 7.49 µM; C2C12 myotubes + simvastatin, ATP luminescence, 48 h; scaled: DMSO 0, geranylgeraniol control 100; actives 0.78% (n = 330,000);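 active = mean ATP rescue above about 67%, or every replicate alone reaching that limit, limit read from the data, passing the limit was not always enough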;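 note: myotubes were challenged with 10 µM simvastatin during compound exposure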
Rtt109 HAT inh: inhibitors of C. albicans Rtt109/Vps75 HAT, primary screen, biochemical, ThioGlo CoA-SH fluorescence, plate reader | Histone acetyltransferase RTT109 (Candida albicans (strain SC5314 / ATCC MYA-2876)), … | purified Rtt109/Vps75, 4 h | inhibition, % at 34.9 µM | actives 0.16% (n = 330,000) | AID 540336, 2011;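 active = inhibition of at least 50% in every replicate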
Cneo AK release: Cryptococcus neoformans cell lysis inducers, primary screen, AK release luminescence, single concentration. actives 0.2% (n = 360,000). AID 651654, 2012. C. neoformans lysis, adenylate kinase release luminescence, 4 h; normalised: neutral wells 0, clomiphene wells 100. lysis activity, % at 15 µM;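 active = mean lysis activity across replicates of at least 80%, whatever share of replicates individually reach that level; inactive = mean lysis activity below 80%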
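Signal: Adenylate kinase release luminescence | Assay system: Log-phase Cryptococcus neoformans yeast cells | Input: Cells at 5 × 10^6 per mL | Buffer or medium: Fresh YPD growth medium | Compound: Single dose | Schedule: Static 4 h at 37 °C with compound, 1 h detection | Controls: Clomiphene | Read-out: Luminescence rise reflecting yeast cell lysis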
Yeast UUG start: alters start codon recognition fidelity in yeast. S. cerevisiae UUG-firefly luciferase reporter, luminescence/redox ratio. activity score, % at 18.7 µM. 0.13% of 350,000 active. AID 602363;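 active = replicate mean at a twofold rise or more, about +100% in these data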;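 also: firefly luciferase made from a UUG start codon reports start codon fidelity; reporter light over untreated wells divided by growth signal over untreated wells; some hits fall short of that in this replicate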
Hits are given with their value; 0 = inactive; - = no result.

SMILES	CDK5 p35 inh	C2C12 statin	Rtt109 HAT inh	Cneo AK release	Yeast UUG start
Cc1noc(C)c1S(=O)(=O)Nc1ccc2c(c1)CC(=O)N([C@H](C)CO)C[C@@H](C)[C@H](CN(C)Cc1ccc(-c3ccccc3)cc1)O2	-	111	-	-	-
Cc1noc(C)c1S(=O)(=O)Nc1ccc2c(c1)CC(=O)N([C@H](C)CO)C[C@@H](C)[C@@H](CN(C)Cc1ccc(C(F)(F)F)cc1)O2	-	83	-	0	0
Cc1noc(C)c1S(=O)(=O)Nc1ccc2c(c1)CC(=O)N([C@H](C)CO)C[C@H](C)[C@@H](CN(C)Cc1ccc(Cl)c(Cl)c1)O2	-	134	-	0	0
Cc1noc(C)c1S(=O)(=O)Nc1ccc2c(c1)CC(=O)N([C@@H](C)CO)C[C@H](C)[C@@H](CN(C)Cc1ccc(Cl)c(Cl)c1)O2	-	79	-	0	0
Cc1noc(C)c1S(=O)(=O)Nc1ccc2c(c1)CC(=O)N([C@@H](C)CO)C[C@@H](C)[C@@H](CN(C)Cc1ccc(C(F)(F)F)cc1)O2	-	0	-	0	0
CCNC(=O)[C@@H]1[C@@H](CO)[C@@H]2Cn3c(ccc(-c4ccc(F)cc4)c3=O)[C@H]1N2C	-	0	-	0	-
Cc1cc(N)c2cc(NC(=O)/C=C/c3ccccc3Cl)ccc2n1	0	0	90	0	0
CCNC(=O)C[C@H]1CC[C@H](NC(=O)NC2CCCCC2)[C@@H](CO)O1	-	0	-	107	0
CCNC(=O)C[C@H]1CC[C@@H](NC(=O)NC2CCCCC2)[C@H](CO)O1	-	0	-	97	0
CC(C)NC(=O)Nc1ccc2c(c1)C(=O)N([C@H](C)CO)C[C@@H](C)[C@H](CN(C)C(=O)CCC(F)(F)F)OCCCC[C@@H](C)O2	-	-	-	0	-
CCC1(C)Cc2c(sc3[nH]c(=O)[nH]c(=O)c23)CS1 (configuration not stated)	0	100	0	0	0
C[C@H](CO)N1C[C@H](C)[C@H](CN(C)S(C)(=O)=O)OCCCC[C@H](C)Oc2ccc(NS(C)(=O)=O)cc2C1=O	-	-	-	0	0
C[C@@H]1CN([C@@H](C)CO)C(=O)c2cccc(NC(=O)C3CC3)c2O[C@@H]1CN(C)Cc1ccc(C(F)(F)F)cc1	-	0	-	0	0
Cn1cnc(S(=O)(=O)N[C@H]2CC[C@H](CC(=O)Nc3ccccc3)O[C@@H]2CO)c1	-	0	-	0	0
Nc1c(Cl)cc(Cl)cc1C(=O)OCC(=O)NC1CC1	0	70	0	0	0
Cc1[nH]nc2c1/C(=N\O)CC(C)(C)C2	0	101	0	0	0
COc1ccc(CNC(=O)CCOc2ccc(C(C)(C)C)cc2)cc1	0	104	0	0	0
COc1ccc(CNC(=O)COc2ccc(OC)cc2)cc1	0	0	0	0	0
Cc1ccc(S(=O)(=O)Nc2cccc3c2O[C@H](CN(C)S(=O)(=O)c2ccc(C)cc2)[C@H](C)CN([C@H](C)CO)C3=O)cc1	-	0	-	0	0
CC1Cc2nc(SCC(N)=O)n(C)c(=O)c2S1 (configuration not stated)	0	135	0	0	0
CC1Cc2nc(SCC(=O)N3CCCC3)n(C)c(=O)c2S1 (configuration not stated)	0	0	0	0	0
CO[C@H]1CN(C)C(=O)c2cc(NC(=O)C3CC3)ccc2OC[C@@H](C)N(C(=O)C2CCOCC2)C[C@@H]1C	-	0	-	0	-
Cc1occc1-c1nnc(SCC(=O)c2ccc(Cl)cc2)n1CC1CCCO1 (configuration not stated)	0	137	0	0	0
CC(C)(C)C(=O)COC(=O)CNC(=O)c1ccc(Oc2ccccc2)cc1	0	141	0	0	0
Cc1cccc(-n2ncc3c(NCc4ccccc4)ncnc32)c1	0	0	0	0	0
SMILES	CDK5 p35 inh	C2C12 statin	Rtt109 HAT inh	Cneo AK release	Yeast UUG start
Cc1cccc(-n2ncc3c(NCCc4ccc(S(N)(=O)=O)cc4)ncnc32)c1	0	105	0	0	0
CS(=O)(=O)N(CC(=O)N/N=C/c1cccs1)c1cccc(Cl)c1Cl	0	119	0	0	0
Cc1nc2sc(C(c3ccc(Br)cc3)N3CC(C)OC(C)C3)c(O)n2n1 (configuration not stated)	0	91	-	0	0
CCOCCc1nnc(NC(=O)C(C)Oc2ccccc2)s1 (configuration not stated)	0	0	0	0	0
CCOCCc1nnc(NC(=O)C(CC)c2ccccc2)s1 (configuration not stated)	0	116	0	0	0
Cc1nn(C)cc1NC(=O)c1cc2nc(-c3ccco3)cc(C(F)(F)F)n2n1	0	0	0	0	0
O=C(Nc1cnn(Cc2ccccc2)c1)c1cc2nc(-c3ccco3)cc(C(F)(F)F)n2n1	0	125	0	0	0
CO[C@@H]1CN(C)C(=O)c2ccc(NC(C)=O)cc2OC[C@@H](C)N(Cc2cncnc2)C[C@@H]1C	-	0	-	-	-
O=C1C=C(NCc2ccc(Cl)c(Cl)c2)C2(CCCCC2)O1	0	142	0	0	0
C[C@@H]1CN([C@H](C)CO)C(=O)c2cc(NC(=O)CCC(F)(F)F)ccc2O[C@H]1CN(C)C	-	0	-	0	0
Cc1cc(C)n(-c2cccc(Cl)c2)c(=O)c1C#N	0	118	0	0	0
O=S(=O)(N/N=C\c1ccc(-c2ccccc2Cl)o1)c1ccccc1	0	118	0	0	0
O=C(N/N=C/c1ccc(-c2ccccc2Cl)o1)c1ccccc1	0	-	0	-	-
ONC=Nc1cccc2nonc12	0	146	0	0	0
Cc1ccc(-n2[nH]c(C)c(C=Nc3cc(C)ccn3)c2=O)cc1	0	89	0	0	0
Nc1nsc2ccccc12	0	120	0	0	0
Nc1nnc(N)c2ccccc12	0	-	0	-	-
C[C@@H]1CN([C@H](C)CO)C(=O)c2cc(NC(=O)C3CCCCC3)ccc2O[C@@H](C)CCCCO[C@H]1CN(C)Cc1ccc(C(F)(F)F)cc1	-	-	-	0	0
CC(=O)N1c2ccc(S(=O)(=O)NCCC(=O)NCc3ccc(N(C)C)cc3)cc2CC1C (configuration not stated)	0	92	0	0	0
CC(C(=O)NCC1CCCO1)n1cccc1C(=O)c1ccccc1 (configuration not stated)	0	107	0	0	0
COc1cc(C(N)=O)ccc1OCc1ccccc1	0	117	0	0	0
COc1ccc(COc2ccccc2C(N)=O)cc1F	0	109	-	0	0
CS(=O)(=O)Nc1ccc2c(c1)[C@@H]1C[C@@H](CC(=O)N3CCOCC3)O[C@@H](CO)[C@@H]1O2	-	0	-	0	0
COc1ccc(Oc2coc3c(CN(C)C)c(O)ccc3c2=O)cc1	0	118	0	0	0
COC(=O)C(NC(=O)c1ccccc1)=C(C)C	0	94	0	0	0
